# scFv variants of Ab-14 (light chain) against a SARS-CoV-2 spike peptide

From the AlphaSeq antibody data of Li et al. 2023 (doi:10.1038/s41467-023-39022-2), copy in the FLAb collection.

The target is the same throughout: PDVDLGDISGINAS, from the HR2 region of SARS-CoV-2 spike.

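The starting antibody came from a phage panning campaign against this peptide. The variants were designed computationally from a first round of random CDR variants and then made and measured. Group labels follow the data file (Ctrl: baseline library sampled from a position-specific scoring matrix, with some repeated check sequences; En: ensemble of fine-tuned language models; GP: Gaussian process model; HC: hill climbing; Gen: genetic algorithm; Gibbs: Gibbs sampling; a sequence that several methods proposed may carry one label only). The assay is AlphaSeq: two haploid yeast populations carry antibody and antigen on their surface. Pairs that bind mate more often; barcode pairs of the diploids are counted by sequencing. A regression on co-assayed BCL2-family reference pairs converts the normalised counts of each replicate to an apparent Kd. Mating was done six times.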

The variants keep the heavy chain, the linker and the frameworks of Ab-14 (scFv order VH, three GGGGS repeats, VL).
VH: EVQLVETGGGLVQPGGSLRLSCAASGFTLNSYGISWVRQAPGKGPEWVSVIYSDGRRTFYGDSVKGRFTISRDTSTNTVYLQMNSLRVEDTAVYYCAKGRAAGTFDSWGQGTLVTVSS
VL: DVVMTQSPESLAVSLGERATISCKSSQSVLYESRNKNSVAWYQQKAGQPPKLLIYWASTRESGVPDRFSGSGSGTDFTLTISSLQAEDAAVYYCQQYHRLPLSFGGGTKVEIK

Variants are written as CDR1, CDR2 and CDR3 of the light chain (limits as in the source). Parent: KSSQSVLYESRNKNSVA, WASTRES, QQYHRLPLS.
Variants here have more than six changes.
Scale: log10 of Kd in nM, estimated from mating counts; low values are strong binders.
Replicates are averaged; those with no signal do not enter the mean.
"nd" means that the variant was in the library but no mating with the target was seen in any replicate; the authors take this as a sign of poor binding, and no number exists.
The range of this assay differs from that of the first round, and the authors advise against merging the two.

The variant KISQSVVWESRNKASVA | SASTREH | QQYHRLMLS [Ctrl] gave nd (0 of 6 replicates). With SLSNQETEQIQHANSIA | DRDEVDV | QQYAHLPLS [En_Gibbs] the result was 0.63 (6 of 6 replicates). For HISQSVGMTAFNKNSVA | ENSTREN | QQYDRLPLS [En_HC], the assay gave 3.70 (2 of 6 replicates). The variant KQQQSFLYESRNSNSVA | NASQREE | QQYHRLPLM [GP_Gibbs] gave 0.38 (6 of 6 replicates). The variant HLGLATMLEEIVRNSVA | NNSTRED | QQYDRLPLS [En_Gen] showed 0.94 (6 of 6 replicates). The variant ILYDSVGTLSRNKYSVA | DNSTRES | QQYDRLPLS [En_HC] showed 1.74 (6 of 6 replicates). With KVQQSELGLSRMKNSVA | NASKRES | QQYHRLPLS [GP_Gibbs] the result was 0.21 (6 of 6 replicates).

For QIAGSEEEVGIHKNSIA | ENTVRPE | QQYLRLPLH [En_Gibbs], the assay gave 0.80 (6 of 6 replicates). The variant KLMNSLDAFKQWEDNVA | ETEHKVA | QQYYHLPLT [En_Gibbs] gave nd (0 of 6 replicates). For NIVGRVNQKGTTTANIA | DAELRAG | QQYSRLPLS [En_Gibbs], the assay gave 0.38 (6 of 6 replicates). The variant KMSQSNDYEERNCNAVA | NASQREE | QQYHRLPLS [GP_Gibbs] gave 0.22 (6 of 6 replicates). With NISYLQGEPTNSVNNVA | QTSKRAP | QYYQRLPLC [En_Gibbs] the result was 0.32 (6 of 6 replicates). With KLQMMVEMESRNPNSVA | SASTREL | QQYHRLPLS [GP_Gibbs] the result was -0.04 (6 of 6 replicates). The variant KIGHTLNTLYEKANNVA | DLVTREN | QQYHRLPLS [En_Gen] showed 0.18 (6 of 6 replicates).

For TISMITSSFSQNINNVA | EVSTRLN | QQYDRLPLA [En_Gen], the assay gave 0.51 (3 of 6 replicates). The variant KVAQGIYEPKRHSHNIA | EASHLCD | QQYARLPLE [En_Gibbs] gave 0.76 (6 of 6 replicates). For MISQLHNMGTFAINSVA | QAELRND | QQYDRLPLT [En_Gen], the assay gave 1.17 (6 of 6 replicates). The variant TISTSAGYESINKNSVA | ELSTRGS | QQYERLPLS [En_HC] gave 0.58 (6 of 6 replicates). The variant KLSQVTHSEHKVKNNIA | EMVTREK | QQYDRLPLS [En_HC] gave 0.21 (6 of 6 replicates). With MISQLINMGSFAINSVA | QASIRNA | QQYDRLPLA [En_Gen] the result was 1.50 (4 of 6 replicates). For MLSDLVMQGSYYRNSVA | QESTRAD | QQYHHLPLS [En_HC], the assay gave 0.79 (6 of 6 replicates).

The variant KIGMTLNQLMHKKNNVA | DLVTREQ | QQYFRLPLS [En_Gen] gave 0.49 (6 of 6 replicates). The variant KLSQSNGYESRLANNVA | NASTRLE | QQYHRLPLS [GP_Gibbs] gave 0.41 (6 of 6 replicates). The variant TIGQVTMQLSRNKNSVA | DASTSED | QQYDRLPLS [En_HC] showed 0.99 (6 of 6 replicates). For MISQLFMYGSRNYNSIA | QAQTREK | QQYDRLPLI [En_HC], the assay gave 1.44 (6 of 6 replicates). With SLTSHEEEIEGAEASVA | NAMMLES | QQYHRLPLM [En_Gibbs] the result was 0.54 (6 of 6 replicates). For KIGQQVTYESTNKNAIA | QMTTREK | QQYHRLPLS [En_HC], the assay gave 0.19 (6 of 6 replicates). With KLSSFHNLESINKSNVA | EMVTREN | QQYDRLPLS [En_HC] the result was 2.71 (3 of 6 replicates).

For KMAMALSEEFGTYHGVA | DADHRMH | QQYNRLPLS [En_Gibbs], the assay gave 0.82 (6 of 6 replicates). The variant KISMLYNFESTNKNSIA | EMTTRES | QHYHRLPLS [En_HC] gave 1.66 (6 of 6 replicates). For TISGVMNSQSHVKNNVA | EMSTRDE | QQYVRLPLA [En_Gen], the assay gave 0.23 (6 of 6 replicates). For ILYESVGTLSRNTNSVA | DNSTREK | QQYDRLPLS [En_HC], the assay gave 1.82 (6 of 6 replicates). With HIQSESYHFGKDHQSMA | DAHCKAA | QQYFRLPLM [En_Gibbs] the result was 1.32 (6 of 6 replicates). For MISQLYNMGSFAINSVA | QASTRNQ | QQYDRLPLM [En_Gen], the assay gave 1.84 (4 of 6 replicates). For NIGMTLNQLMHKKNNVA | DLVERET | QQYFRLPLS [En_Gen], the assay gave 0.42 (6 of 6 replicates).

The variant KVSQSMGYESRNQNSVA | EASHRES | QQYHRLPLW [GP_Gibbs] showed 0.59 (6 of 6 replicates). The variant KMKQSLEGNPKNWNSVA | EVESAKE | QQYARLPLM [En_Gibbs] gave 2.20 (6 of 6 replicates). The variant QLDQAYRVGGLWKQSIA | HGSMRVQ | QCYVRLPLS [En_Gibbs] gave 2.05 (2 of 6 replicates). For MISGSVMSESRLKNSVA | QTTTREA | QQYDRLPLS [En_HC], the assay gave 0.45 (6 of 6 replicates). With KISQNMGETSRNKHSVA | EVSLVPS | QQYWRLPLS [En_HC] the result was 1.39 (6 of 6 replicates). For MLGMTVMQGMVSRNNVA | QEETRAD | QQYHHLPLS [En_HC], the assay gave 0.77 (6 of 6 replicates). The variant KITGMWTFEQHNRNNIA | EESTRED | QSYHRLPLS [En_HC] gave 0.89 (6 of 6 replicates).

The variant KSSPSQYYEDREFNSVA | HASQRES | QQYHRLPLS [GP_Gibbs] gave nd (0 of 6 replicates). The variant KIDENTNHGANRQNNIA | EARTVGA | QQYFRLPII [En_Gibbs] gave 0.61 (6 of 6 replicates). The variant TISQSWFVESRNKNNVA | EMSTREN | QDYDRLPLS [En_HC] gave 0.50 (6 of 6 replicates). The variant ILYESVGTLSRNRNSVA | DNSTRES | QQYDRLPLS [En_HC] gave 2.22 (1 of 6 replicates). With KLTQTMRFEQKKKNNIA | EVSERSK | QQYYRLPLA [En_Gen] the result was 1.44 (5 of 6 replicates).

Top 5 of the variants detected in all replicates, tightest first:

CDR-L1	CDR-L2	CDR-L3	group	mean, log10 nM	replicates with signal
KLQMMVEMESRNPNSVA	SASTREL	QQYHRLPLS	GP_Gibbs	-0.04	6/6
KIGHTLNTLYEKANNVA	DLVTREN	QQYHRLPLS	En_Gen	0.18	6/6
KIGQQVTYESTNKNAIA	QMTTREK	QQYHRLPLS	En_HC	0.19	6/6
KLSQVTHSEHKVKNNIA	EMVTREK	QQYDRLPLS	En_HC	0.21	6/6
KVQQSELGLSRMKNSVA	NASKRES	QQYHRLPLS	GP_Gibbs	0.21	6/6

The authors averaged sequences with at least three values out of six and counted those with two or fewer as poor binders.
Nonspecific signal, from three strains lacking the peptide, appeared in 4% of pairings of all light chain designs, centred on 2.64 (5% of these signals below 1.59); values are not corrected for it.
The parent sequence was in this pool as ten entries: three were never detected, three once, and four in most replicates, with averages from 0.34 to 2.37.